Measurements reported in patent US9096531B2, “Fused imidazole derivative” (TOA EIYO LTD., priority 2010, dated 2015).

The chains behind the UniProt entries cited, without tags or fusion partners.
UniProt O95180, whole entry: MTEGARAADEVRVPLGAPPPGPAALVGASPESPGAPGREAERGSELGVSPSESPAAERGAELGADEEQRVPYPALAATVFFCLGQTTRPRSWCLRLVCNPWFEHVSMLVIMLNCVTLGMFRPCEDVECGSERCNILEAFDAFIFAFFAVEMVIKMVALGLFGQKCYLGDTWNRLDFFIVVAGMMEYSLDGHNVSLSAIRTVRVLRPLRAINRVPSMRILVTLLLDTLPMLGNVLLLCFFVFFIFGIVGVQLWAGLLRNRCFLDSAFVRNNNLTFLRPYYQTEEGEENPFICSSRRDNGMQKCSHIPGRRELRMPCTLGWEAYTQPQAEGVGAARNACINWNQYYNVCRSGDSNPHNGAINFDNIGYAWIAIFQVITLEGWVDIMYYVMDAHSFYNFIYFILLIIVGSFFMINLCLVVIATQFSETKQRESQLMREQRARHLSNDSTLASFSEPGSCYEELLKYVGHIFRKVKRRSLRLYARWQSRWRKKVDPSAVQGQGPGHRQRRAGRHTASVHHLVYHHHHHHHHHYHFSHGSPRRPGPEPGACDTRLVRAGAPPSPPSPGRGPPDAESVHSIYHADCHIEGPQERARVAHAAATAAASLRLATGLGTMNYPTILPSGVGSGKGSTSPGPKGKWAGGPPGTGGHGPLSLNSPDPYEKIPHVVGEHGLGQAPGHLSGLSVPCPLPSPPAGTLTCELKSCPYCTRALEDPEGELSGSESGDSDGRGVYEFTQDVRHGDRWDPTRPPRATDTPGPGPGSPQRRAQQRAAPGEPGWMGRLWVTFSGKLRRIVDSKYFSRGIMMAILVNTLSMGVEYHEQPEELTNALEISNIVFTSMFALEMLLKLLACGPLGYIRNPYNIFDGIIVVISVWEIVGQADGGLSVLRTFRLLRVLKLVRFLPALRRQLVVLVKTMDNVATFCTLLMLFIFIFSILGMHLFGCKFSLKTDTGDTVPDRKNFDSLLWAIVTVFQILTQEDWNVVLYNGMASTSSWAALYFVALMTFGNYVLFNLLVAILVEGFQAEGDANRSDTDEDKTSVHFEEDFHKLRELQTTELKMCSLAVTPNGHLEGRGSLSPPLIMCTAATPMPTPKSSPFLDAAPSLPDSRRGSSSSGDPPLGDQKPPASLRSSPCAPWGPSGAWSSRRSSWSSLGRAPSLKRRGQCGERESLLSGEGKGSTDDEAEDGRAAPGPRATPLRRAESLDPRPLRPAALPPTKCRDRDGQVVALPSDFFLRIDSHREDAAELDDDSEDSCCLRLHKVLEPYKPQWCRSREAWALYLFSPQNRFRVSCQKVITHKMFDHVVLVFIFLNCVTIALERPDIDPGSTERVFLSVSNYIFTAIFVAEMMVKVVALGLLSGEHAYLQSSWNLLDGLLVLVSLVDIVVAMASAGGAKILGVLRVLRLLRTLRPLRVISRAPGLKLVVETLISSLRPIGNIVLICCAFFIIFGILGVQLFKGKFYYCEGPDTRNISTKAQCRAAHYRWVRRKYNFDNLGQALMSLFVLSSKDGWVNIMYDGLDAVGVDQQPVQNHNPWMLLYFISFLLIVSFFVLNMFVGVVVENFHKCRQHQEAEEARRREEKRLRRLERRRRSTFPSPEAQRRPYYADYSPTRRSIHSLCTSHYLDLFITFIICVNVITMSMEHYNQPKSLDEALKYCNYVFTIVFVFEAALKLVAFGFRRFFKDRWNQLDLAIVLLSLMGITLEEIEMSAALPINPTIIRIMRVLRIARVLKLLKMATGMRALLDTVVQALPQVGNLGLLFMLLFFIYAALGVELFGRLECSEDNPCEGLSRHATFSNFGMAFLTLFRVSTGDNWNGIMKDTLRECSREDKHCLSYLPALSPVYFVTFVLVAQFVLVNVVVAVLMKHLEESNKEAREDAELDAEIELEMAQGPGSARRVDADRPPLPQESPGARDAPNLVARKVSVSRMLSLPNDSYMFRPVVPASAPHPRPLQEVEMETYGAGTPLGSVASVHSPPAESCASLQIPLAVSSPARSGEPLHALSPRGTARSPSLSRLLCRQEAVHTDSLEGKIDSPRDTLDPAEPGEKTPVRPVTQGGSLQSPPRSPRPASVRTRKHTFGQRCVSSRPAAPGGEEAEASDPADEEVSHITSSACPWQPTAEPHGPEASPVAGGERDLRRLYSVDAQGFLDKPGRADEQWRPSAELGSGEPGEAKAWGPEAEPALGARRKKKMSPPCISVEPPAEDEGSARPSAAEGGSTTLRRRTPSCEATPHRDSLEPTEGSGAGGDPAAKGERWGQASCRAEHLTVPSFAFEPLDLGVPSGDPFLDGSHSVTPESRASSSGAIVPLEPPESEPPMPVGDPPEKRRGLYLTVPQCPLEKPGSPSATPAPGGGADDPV

Target: human T-type calcium channels (human Cav3.2) (Homo sapiens, UniProt O95180)
Assay: Intracellular calcium (Fura2 fluorescence) assay in HEK293 cells stably expressing human Cav3.2
Settings: Fura2 fluorescence ratio after calcium chloride addition, 15 min with compound

## Cc1ccc(COc2ccc(C(O)c3nc4cc(F)cnc4[nH]3)cc2)cc1 (stereo not shown)
  IC50: 140 nM
